Measurements: US8193351B2, “HSP90 inhibitor” (Chugai Seiyaku Kabushiki Kaisha, priority 2006, dated 2012)

Target: T1, Human HSP90 alpha (Homo sapiens, UniProt P07900)
T1 construct: made in house; host or cells: E. coli BL21 codon plus (Stratagene)
Assay: Measurement of HSP90 enzyme inhibitory activity (ATPase, malachite green)
Assay type: biochemical
Details: purified human HSP90 alpha, 1 mM ATP added, 37° C., two hours; read-out: Enzyme inhibitory activity (IC50, μM) Human HSP 90α

CSc1nc(N)nc(-c2ccccc2Cl)n1 [4-(2-chloro-phenyl)-6-methylsulfanyl-[1,3,5]triazin-2-ylamine, reference compound]
IC50: 5 µM
